Results from patent publication US20080287402A1, “Use of a glial attenuator to prevent amplified pain responses caused by glial priming” (published 2008).

Tested on: amplified pain resulting from glial priming
Experiment: von Frey test of referred hindpaw pain after cyclophosphamide induced cystitis in rats with prior laparotomy (glial priming)
Details: 50 mg/kg ibudilast p.o. 2 days prior and 5 days after laparotomy, 100 mg/kg cyclophosphamide i.p. two weeks after surgery, FIG. 1

CC(C)C(=O)c1c(C(C)C)nn2ccccc12
responses to pain in the von Frey test: behaved no differently than rats that received Vehicle instead of cyclcophosphamide
